Assay results taken from ChEMBL document CHEMBL1126242 (J Med Chem, 1992).

target: T1, Endothelin receptor type B (Rattus norvegicus, UniProt P21451); test: Inhibition of ET-1 binding to Endothelin B receptor in cultured rat cerebellar membranes; assay type: cell membranes, Membrane
T1 sequence (P21451 whole entry): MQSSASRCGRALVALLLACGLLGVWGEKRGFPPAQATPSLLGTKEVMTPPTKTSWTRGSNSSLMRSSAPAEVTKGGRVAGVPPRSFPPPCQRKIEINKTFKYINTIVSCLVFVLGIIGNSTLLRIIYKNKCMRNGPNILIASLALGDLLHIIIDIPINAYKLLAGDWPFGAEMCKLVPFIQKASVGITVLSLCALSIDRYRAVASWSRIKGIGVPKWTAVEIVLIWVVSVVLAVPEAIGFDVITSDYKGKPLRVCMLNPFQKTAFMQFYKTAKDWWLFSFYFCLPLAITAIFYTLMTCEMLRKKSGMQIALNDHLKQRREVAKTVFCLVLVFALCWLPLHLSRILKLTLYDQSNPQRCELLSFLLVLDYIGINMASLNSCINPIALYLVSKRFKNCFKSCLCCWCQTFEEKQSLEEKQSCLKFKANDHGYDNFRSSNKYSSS

IC50 [µM]	SMILES
3.5	CC[C@H](C)[C@H](NC(=O)[C@H](CC(=O)O)NC(=O)[C@H](CC(C)C)NC(=O)[C@@H](Cc1ccc(-c2ccccc2)cc1)NC(C)=O)C(=O)N[C@H](C(=O)N[C@@H](Cc1c[nH]c2ccccc12)C(=O)O)[C@@H](C)CC
1.8	CC[C@H](C)[C@H](NC(=O)[C@H](CC(=O)O)NC(=O)[C@H](CC(C)C)NC(=O)[C@@H](Cc1c[nH]c2ccccc12)NC(C)=O)C(=O)N[C@H](C(=O)N[C@@H](Cc1c[nH]c2ccccc12)C(=O)O)[C@@H](C)CC

SMILES	IC50 [µM]
CC[C@H](C)[C@H](NC(=O)[C@H](CC(=O)O)NC(=O)[C@H](CC(C)C)NC(=O)[C@@H](N)Cc1c[nH]cn1)C(=O)N[C@H](C(=O)N[C@@H](Cc1c[nH]c2ccccc12)C(=O)O)[C@@H](C)CC	> 50
